# Test results from patent publication US20260388722A1, “COMPUTER-IMPLEMENTED METHOD FOR IDENTIFICATION OF PHARMACEUTICALLY ACTIVE SUBSTANCES” (published 2026).
# Tested on: Trypanosoma cruzi amastigotes (Tc(ama))
# Assay: Trypanosoma cruzi amastigote assay, values normalized to benznidazole
# Details: normalized to reference compound benznidazole (= 1); higher = more active; described as relative IC50 values
# From the text: FIGS. 6 and 7 show an example of an experimental validation of a TPM based ligand optimization. FIG. 6 presents relative IC50 values in the Trypanosoma cruzi amastigote assay of five parent compounds denoted “Regular” and respective TPM-optimized compounds denoted “Isomer”.
# The assay values shown in FIG. 6 are normalized to a reference compound (benznidazole) to enable direct comparison of different experimental batches. It can be seen that all TPM-optimized compounds “Isomer” according to the invention achieve better activity when compared to their corresponding “Regular” parent compound. The “Regular” and “Isomer” structure relative efficacies against Trypanosoma cruzi amastigotes compared to Benznidazole visualized in FIG. 6 are listed in Table 1.
structure (smiles),measurement,value
O=C(Cn1ccnc1[N+](=O)[O-])NCc1ccccc1,relative efficacy against Trypanosoma cruzi amastigotes (Tc(ama)) compared to Benznidazole,1
